The results in this text go back to patent US20110269759A1, “PYRIMIDINE COMPOUNDS AS DELTA OPIOID RECEPTOR MODULATORS” (priority 2009, published 2011).

Chains of the proteins cited; added tags and fusions are not shown. Lines headed by an entry give the natural chain unless they say otherwise; changes in a name come on top.
UniProt P32300, whole entry: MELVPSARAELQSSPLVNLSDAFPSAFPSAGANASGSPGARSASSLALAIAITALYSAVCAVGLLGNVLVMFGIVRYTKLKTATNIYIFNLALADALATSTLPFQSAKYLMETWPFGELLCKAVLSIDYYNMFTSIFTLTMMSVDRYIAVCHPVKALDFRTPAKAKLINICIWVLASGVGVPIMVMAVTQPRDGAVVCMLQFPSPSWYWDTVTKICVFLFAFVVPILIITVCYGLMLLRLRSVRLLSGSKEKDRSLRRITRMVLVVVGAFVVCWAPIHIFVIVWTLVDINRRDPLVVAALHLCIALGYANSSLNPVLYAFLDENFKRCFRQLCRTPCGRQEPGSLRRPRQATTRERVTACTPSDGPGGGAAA

This assay deals with δ-opioid receptor (Mus musculus, UniProt P32300). The assay is described as follows: [35S]GTPγS δ-opioid receptor functional assay (EC50, relative efficacy, % inhibition). Details: NG108-15 cell membranes were purchased from Applied Cell Sciences (Rockville, Md.). It counts as biochemical. On the technique in general: GTPγS resists hydrolysis and so accumulates on activated G proteins.

`CNCCNc1ccc(Oc2ccc(OC)cc2)cc1Oc1ccc(OC)cc1` [Cpd 63, N-[2,4-Bis-(4-methoxy-phenoxy)-phenyl]-N′-methyl-ethane-1,2-diamine] displayed an EC50 of 3110 nM. Next, `COc1ccc(Oc2cc(-c3ccccc3)ccc2NC[C@@H]2CCCN2)cc1` [Cpd 35, (S)-[3-(4-Methoxy-phenoxy)-biphenyl-4-yl]-pyrrolidin-2-ylmethyl-amine]: 1460 nM.

In general, EC50 refers to the concentration giving half of the maximal effect.
